# Results as given in paper PMC9458059, “Design, Synthesis and Biological Evaluation of New Carbohydrate-Based Coumarin Derivatives as Selective Carbonic Anhydrase IX Inhibitors via “Click” Reaction” (Molecules, 2022).
# Legend:
# Assay type in all cases: biochemical
# Conditions in all cases: human recombinant enzyme, 4-nitrophenylacetate as substrate
# [1] = molecular target: hCA II (Homo sapiens, UniProt P00918); assay: CA inhibition by the esterase assay, hCA II
# [2] = molecular target: T1, hCA IX (Homo sapiens, UniProt Q16790); assay: CA inhibition by the esterase assay, hCA IX
# T1 construct: purchased
# [3] = molecular target: T2, hCA I (Homo sapiens, UniProt P00915); assay: CA inhibition by the esterase assay, hCA I
# T2 construct: purchased
smiles,measurement,setting,value
"O=c1ccc2ccc(O)cc2o1 [Umbelliferone, 7-hydroxy coumarin, reference compound]",IC50,[1],> 100 µM
same,IC50,[2],0.5 µM
same,IC50,[3],> 100 µM
